Experimental data from US20120141461A1, “COMPOSITIONS AND METHODS FOR DIAGNOSING AND TREATING FIBROTIC DISORDERS” (THE REGENTS OF THE UNIVERSITY OF MICHIGAN, priority 2009, published 2012).

Chains of the proteins cited; added tags and fusions are not shown.
UniProt Q9NPH5, whole entry, species assumed: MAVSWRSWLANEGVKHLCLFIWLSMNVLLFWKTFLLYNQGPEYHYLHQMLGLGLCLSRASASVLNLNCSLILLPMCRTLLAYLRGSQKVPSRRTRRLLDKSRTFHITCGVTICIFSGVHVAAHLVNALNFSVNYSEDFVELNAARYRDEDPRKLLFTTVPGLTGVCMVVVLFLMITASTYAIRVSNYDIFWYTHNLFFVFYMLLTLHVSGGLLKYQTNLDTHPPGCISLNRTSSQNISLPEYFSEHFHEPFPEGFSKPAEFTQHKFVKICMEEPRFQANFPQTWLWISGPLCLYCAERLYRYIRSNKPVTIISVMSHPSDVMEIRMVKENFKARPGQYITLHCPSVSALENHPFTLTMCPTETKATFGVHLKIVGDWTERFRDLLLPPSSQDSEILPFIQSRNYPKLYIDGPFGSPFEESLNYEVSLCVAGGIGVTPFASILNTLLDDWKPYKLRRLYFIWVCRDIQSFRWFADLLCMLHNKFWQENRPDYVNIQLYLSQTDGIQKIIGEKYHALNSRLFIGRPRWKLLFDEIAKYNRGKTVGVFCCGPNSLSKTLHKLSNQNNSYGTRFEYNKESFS

Biological target: NOX4 (Homo sapiens, UniProt Q9NPH5)
Assay: cell-based

c1ccc2c(c1)[I+]c1ccccc1-2 [DPI, diphenyleneiodonium chloride]
IC50: < 500 nM
